In the test the target is CSA-DDB1 (human) (UniProt Q13216). Nature of the test: nano-differential scanning fluorimetry; complexes at 2 µM in 20 mM HEPES pH 7.5, 150 mM NaCl, 5% glycerol, 0.5 mM TCEP; Prometheus NT.48, 350/330 nm ratio, 1 °C/min from 20 to 90 °C; compared with CSA-DDB1 alone.

For “DDA1 (recombinant, C-terminal TwinStrep-flag tag) (from UniProt Q9BW61 1-102) (natural protein)”, the thermal stabilization (melting curve) against CSA-DDB1 alone came out at 1 degree.

Values taken from publication PMC11286758.
